Among the data in patent US9040518B2, “Chemical compounds” (GlaxoSmithKline LLC, priority 2010, dated 2015) are IC50 values, retold here.

Protein sequences, listed by entry. Tags and fused reporters are not part of them. Lines headed by an entry give the natural chain unless they say otherwise; changes in a name come on top.
UniProt Q12908: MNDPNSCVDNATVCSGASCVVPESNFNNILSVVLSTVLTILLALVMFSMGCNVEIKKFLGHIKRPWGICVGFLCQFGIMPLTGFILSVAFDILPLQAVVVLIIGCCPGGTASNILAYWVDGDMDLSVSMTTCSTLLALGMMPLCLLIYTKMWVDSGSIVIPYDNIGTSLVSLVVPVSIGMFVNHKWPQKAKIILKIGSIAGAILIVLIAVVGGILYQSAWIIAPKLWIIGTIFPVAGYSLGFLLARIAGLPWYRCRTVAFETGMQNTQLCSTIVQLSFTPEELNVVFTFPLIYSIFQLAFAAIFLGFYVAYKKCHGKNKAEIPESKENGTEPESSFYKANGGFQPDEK

The experiment has as its target ileal bile acid cotransporter (iBAT) (Homo sapiens (Human), UniProt Q12908). The experiment is described as follows: Human iBAT inhibition: [3H]-taurocholate uptake into HEK293 cells expressing human iBAT. The experiment is classed as cell-based. To be noted: HEK293 cells transduced with human iBAT Bacmam virus, 90 minutes at ambient temperature, mean of at least 2 datapoints. The method, then: Method for Determination of Human iBAT Inhibition:
In preparation for measurement of bile acid uptake into cells expressing the ileal bile acid cotransporter (iBAT), HEK293 cells were cultured in DMEM/F12 supplemented with 10% FBS. Twenty four hours prior to running an experiment, cells were harvested when at a confluence of 80-90%. Cells were seeded in poly-d-lysine coated plates at 50,000 cells per well, and human iBAT Bacmam virus was added such that each well contains 3.67×10e6 pfu (73.4pfu/cell). Each assay plate was covered with Breathe Easy Seal and placed in an incubator for 24 hours to allow expression of the transporter.
On the day of the uptake experiment, 10 mM HEPES was added to Hank's Balanced Salt Solution, and the pH was adjusted to 7.4 with TRIS (HBSSH). The assay buffer was prepared by adding […] [^3H]-taurocholate and 10 μM cold taurocholate to room temperature HBSSH. A separate washing buffer was prepared by adding 10 μM cold taurocholate to HBSSH (˜30 ml per assay plate) and placed on ice. Using 100% DMSO, 8 point, 3-fold dilution curves for each test compound was prepared starting at 200 μM. […] The amount of [^3H]-taurocholate in cell lysate was quantitated using a microplate scintillation counter on the following day. […]

In turn, `CCCC[C@]1(CC)CS(=O)(=O)c2cc(C(=O)NC(CC(=O)O)CC(=O)O)c(OC)cc2[C@@H](c2ccccc2)N1` [Example 70, 3-({[(3R,5R)-3-butyl-3-ethyl-7-(methyloxy)-1,1-dioxido-5-phenyl-2,3,4,5-tetrahydro-1,4-benzothiazepin-8-yl]carbonyl}amino)pentanedioic acid] gave an IC50 of 100 nM. The same measure for `CCCC[C@]1(CC)CS(=O)(=O)c2cc(C(C)=O)c(OC)cc2[C@@H](c2ccccc2)N1` [Example 71, 1-[(3R,5R)-3-butyl-3-ethyl-7-(methyloxy)-1,1-dioxido-5-phenyl-2,3,4,5-tetrahydro-1,4-benzothiazepin-8-yl]ethanone]: 100 nM.

Broadly, the IC50 is the concentration at which inhibition is half-maximal. High values mean weaker potency, low ones greater potency.
